Measured values published in patent US20240287081A1, “PERFLUOROALKANE SUBSTITUTED PYRAZOLO[3,4-D]PYRIMIDIN AND PYRROLO[2,3-D]PYRIMIDIN COMPOUNDS AND USES THEREOF” (ICAHN SCHOOL OF MEDICINE AT MOUNT SINAI, priority 2021, published 2024).

Target: T1, wild-type RET kinase domain (Homo sapiens, UniProt P07949)
T1 construct: determined against recombinant-human, wild-type RET kinase domain; phage display fusion (kinase expressed on phage); purchased DiscoverX (Fremont, CA); host or cells: phage
T1 sequence (P07949 724-1016 limits assumed): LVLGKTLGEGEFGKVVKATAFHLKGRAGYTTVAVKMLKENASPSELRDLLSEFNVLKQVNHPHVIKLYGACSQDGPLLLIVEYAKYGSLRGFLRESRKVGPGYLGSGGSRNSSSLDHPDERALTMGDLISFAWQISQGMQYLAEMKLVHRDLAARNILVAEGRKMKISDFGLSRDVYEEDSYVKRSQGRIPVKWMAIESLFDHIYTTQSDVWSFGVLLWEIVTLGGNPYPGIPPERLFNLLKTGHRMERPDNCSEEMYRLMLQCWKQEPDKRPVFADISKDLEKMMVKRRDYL
Assay: Wild-type RET Kd, bead based competition assay (KINOMEscan, DiscoverX)
Assay type: binding
Details: recombinant human wild-type RET kinase domain, average of two replicates; read-out: Kd towards wild-type RET
Description: Wild-type RET Kd values were determined by DiscoverX (Fremont, CA) using a bead based competition assay (KINOMEscan). In brief, kinases are expressed on phage and immobilized on beads via active site-directed ligands. Test compounds are premixed with kinases and assayed for the ability to compete for immobilized ligands. Binding constants are calculated with a standard dose-response curve and the Hill equation, with Hill slope set to −1. […] Kd values are the average of two experimental replicates.
To assess if the differences in activity between R^F- and R^H-analogs were related to alterations in target engagement, representative analogs for binding on wild-type RET were compared. For this KD values of compounds 40 (para-C2F5) and 50 (para-C2H5) were determined against recombinant-human, wild-type RET kinase domain. Assays were completed using the bead-based competition format developed by Ambit/DiscoverX and binding curves were plotted relative to regorafenib (2; FIG. 8A).

## CNC(=O)c1cc(Oc2ccc(NC(=O)Nc3ccc(Cl)c(C(F)(F)F)c3)c(F)c2)ccn1 [regorafenib, reference compound]
  Kd: 6.4 nM
